According to patent publication US5804593A, “α-Amino sulfonyl hydroxamic acids as matrix metalloproteinase inhibitors” (Pharmacia & Upjohn Company, priority 1997, dated 1998):

Molecular target: Gelatinase
Test: particle concentration fluorescence assay of MMP inhibition in vitro
Type: biochemical
Settings: fluorescein/biotin-labelled substrate, avidin-coated particles, room temperature, pH 7.5
Protocol: Inhibitory activity is evaluated in one or more of the MMP enzymes (stromelysin, gelatinase, and collagenase) in vitro using particle concentration fluorescence assay. An inhibitor binds to MMP enzymes which prevents the degradation of a substrate by stromelysin, gelatinase, or collagenase. The substrate has attached to it a fluorescein and a biotin moiety. The intact substrate then binds to an avidin-coated particle via the biotin moiety. Once the particle is washed and dried, a fluorescent signal is generated since the fluorescent group is attached to the particle. Without an inhibitor present, the substrate is degraded by MMP enzymes and the fluorescein group is removed, therefore, no fluorescent signal can be detected. Testing compounds are dissolved in DMSO to the desired concentration, then the solutions are diluted to 1:5 with MMP buffer (50 mM Tris-HCl, pH 7.5; 150 mM NaCl; 0.02% NaN3). Serial two-fold dilutions of each compound are prepared. A concentrated, activated enzyme solution is transferred into each plate of the testing compounds, and the mixture is incubated at room temperature for 15 minutes. Thawed MMP substrate is then added into all plates, and the plates are incubated in the dark for 1-3 hours at room temperature. […] After 15 minutes, the fluorescence values are measured following filtration and washing of the beads. Ki values are then calculated.

COc1ccc(S(=O)(=O)N[C@@H](C(=O)NO)C(C)C)cc1 [Example 8, N-hydroxy-2(R)-[(4-methoxybenzenesulfonyl)amino]-3-methyl butanamide]
Ki: 9.1 nM
